Measured values published in ChEMBL document CHEMBL1146801, “Oxyguanidines. Part 2: Discovery of a novel orally active thrombin inhibitor through structure-based drug design and parallel synthesis” (Bioorg Med Chem Lett, 2004).

Target: Prothrombin (Homo sapiens, UniProt P00734)
Test: Inhibitory activity against thrombin

N=C(N)NOCCCOc1cc(Cl)cc(C(=O)N2CCOCC2)c1 showed a Ki of 7.62 µM.
